Data reported in ChEMBL document CHEMBL3228013 (J Med Chem, 1979).

Experiments:
[1] = Half life of the compound in 1:1 H2O:ethylalcohol containing at 1 x 10^-1 M NaOH at 1 x 10^-5 M by UV-spectroscopy; conditions: 10 µM
[2] = Half life of the compound in 1:1 H2O:ethylalcohol containing at 5 x 10^-1 M NaOH at 1 x 10^-5 M by UV-spectroscopy; conditions: 10 µM
[3] = Half life of the compound in 1:1 H2O:ethylalcohol containing at 1 M NaOH at 1 x 10^-5 M by UV-spectroscopy; conditions: 10 µM
[4] = Half life of the compound in 1:1 H2O:ethylalcohol containing at 8.3 x 10^-3 M NaOH at 8.3 x 10^-5 M by UV-spectroscopy; conditions: 83 µM
[5] = Half life of the compound in 1:1 H2O:ethylalcohol containing at 2 x 10^-2 M NaOH at 1 x 10^-5 M by UV-spectroscopy; conditions: 10 µM
[6] = Drug metabolism assessed as wheat germ orthophosphoric monoester phosphohydrolase-mediated hydrolysis at 0.3 mM by UV spectroscopy; conditions: triticum aestivum, 300 µM
[7] = Inhibition of wheat germ orthophosphoric monoester phosphohydrolase using 2-carboxyphenyl phosphate as substrate at 0.3 mM after 2 hrs by UV spectroscopy; conditions: triticum aestivum, 300 µM
[8] = Half life of the compound in 1:1 H2O:ethylalcohol containing at 4 x 10^-2 M NaOH at 1 x 10^-5 M by UV-spectroscopy; conditions: 10 µM
[9] = Half life of the compound in 1:1 H2O:ethylalcohol containing at 7.50 x 10^-1 M NaOH at 1 x 10^-5 M by UV-spectroscopy; conditions: 10 µM

## NP(=O)(Oc1ccc([N+](=O)[O-])cc1)N(CCCl)CCCl (centres undefined)
[1]
  t1/2: 2.67 min
[2]
  t1/2: 0.5 min
[3]
  t1/2: 0.267 min
[4]
  t1/2: 9.83 min
[5]
  t1/2: 11.7 min
[6]
  Stability: Stable
[7]
  inhibition (INH): Not Active
[8]
  t1/2: 5.25 min
[9]
  t1/2: 0.317 min
